Literature values as cited in patent publication US9782454B2 (LONGEVITY BIOTECH, INC., priority 2010, dated 2017).

Target: T1, CRF1 (Homo sapiens, UniProt P34998)
T1 sequence (P34998 24-415): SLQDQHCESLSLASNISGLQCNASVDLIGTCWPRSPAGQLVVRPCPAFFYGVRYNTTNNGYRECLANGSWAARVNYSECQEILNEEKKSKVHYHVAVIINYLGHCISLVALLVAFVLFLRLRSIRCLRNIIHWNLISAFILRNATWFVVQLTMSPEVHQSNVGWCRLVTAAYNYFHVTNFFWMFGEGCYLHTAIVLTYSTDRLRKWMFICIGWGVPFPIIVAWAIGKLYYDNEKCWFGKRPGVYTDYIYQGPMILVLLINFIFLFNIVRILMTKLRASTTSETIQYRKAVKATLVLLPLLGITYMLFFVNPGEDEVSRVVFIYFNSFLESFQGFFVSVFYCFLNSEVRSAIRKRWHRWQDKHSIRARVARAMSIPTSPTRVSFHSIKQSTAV
Conditions: cited from earlier work

For Astressin, the Ki is given as 2 nM.
